Measurements as given in PubChem BioAssay (NCI).
Only a part is listed here, and it is no random draw. Some compounds were tested as several samples or in several runs, with calls that do not always agree. Active and inactive are the calls of the source. Rule as the data show it: active = growth inhibition above about 70%; inactive = the rest.

How the values were obtained:
[1] = NCI Yeast Anticancer Drug Screen. Data for the rad50 strain (AID 155);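 also: 0% = growth of vehicle-only cultures of the same strain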; details: S. cerevisiae rad50 strain growth inhibition, hits give high values
[2] = NCI Yeast Anticancer Drug Screen. Data for the mec2-1 strain (AID 157); details: S. cerevisiae mec2-1 strain, hits give high values
[3] = NCI Yeast Anticancer Drug Screen. Data for the sgs1 mgt1 strain (AID 161);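 also: 0% = growth of cultures given vehicle only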; details: S. cerevisiae sgs1 mgt1 strain, hits give high values
[4] = NCI Yeast Anticancer Drug Screen. Data for the cln2 rad14 strain (AID 165);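 also: 0% = growth equal to vehicle treated cultures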; details: S. cerevisiae cln2 rad14 strain, hits give high values
[5] = NCI Yeast Anticancer Drug Screen. Data for the bub3 strain (AID 167); details: S. cerevisiae bub3 mutant strain, hits give high values
[6] = NCI Yeast Anticancer Drug Screen. Data for the mlh1 rad18 strain (AID 175); details: S. cerevisiae mlh1 rad18 strain growth inhibition, hits give high values
[7] = at 5.0 µM (retest, dose inferred, filed as 0.5)
[8] = at 50.0 µM (retest, dose inferred, filed as 5.0)

| SMILES | growth inhibition [1, 7] | growth inhibition [1, 8] | growth inhibition ([1]; at 50.0 µM) | growth inhibition [2, 7] | growth inhibition [2, 8] | growth inhibition ([2]; at 50.0 µM) | growth inhibition [3, 7] | growth inhibition [3, 8] | growth inhibition ([3]; at 50.0 µM) | growth inhibition [4, 7] | growth inhibition [4, 8] | growth inhibition ([4]; at 50.0 µM) | growth inhibition [5, 7] | growth inhibition [5, 8] | growth inhibition ([5]; at 50.0 µM) | growth inhibition [6, 7] | growth inhibition [6, 8] | growth inhibition ([6]; at 50.0 µM) |
| --- | --- | --- | --- | --- | --- | --- | --- | --- | --- | --- | --- | --- | --- | --- | --- | --- | --- | --- |
| CC(COC(=S)OCC(C)([N+](=O)[O-])[N+](=O)[O-])([N+](=O)[O-])[N+](=O)[O-] | inactive: 2% | inactive: 53% | inactive: 34.9% | inactive: 3% | inactive: 64% | inactive: 21.6% | inactive: 24% | active: 85% | inactive: 45.9% | inactive: 9% | inactive: 45% | inactive: 34.8% | inactive: -3% | active: 92% | inactive: 13.4% | inactive: 5% | active: 92% | active: 71.3% |
| O=C(O)c1c([N+](=O)[O-])cc([N+](=O)[O-])c(-c2ccc([N+](=O)[O-])cc2[N+](=O)[O-])c1[N+](=O)[O-] | inactive: 10% | inactive: 38% | inactive: 66.5% | inactive: 7% | inactive: 25% | inactive: 41.9% | inactive: 12% | inactive: 23% | active: 84% | inactive: -3% | inactive: 17% | inactive: 28.9% | inactive: 4% | inactive: 10% | inactive: 28.3% | inactive: 13% | inactive: 63% | active: 73.2% |
| Cc1cc([N+](=O)[O-])ccc1[N+](=O)[O-] | inactive: 12% | active: 97% | active: 89.9% | inactive: 7% | active: 98% | active: 91.6% | inactive: -8% | active: 98% | active: 92.4% | inactive: 16% | inactive: 46% | active: 86.8% | inactive: -3% | active: 98% | active: 89.8% | inactive: -33% | active: 97% | active: 88.1% |
| Cc1ccc(CN2CCCCC2)o1.O=[N+]([O-])c1cc([N+](=O)[O-])c(O)c([N+](=O)[O-])c1 | inactive: 19% | inactive: 60% | active: 83.3% | inactive: 13% | inactive: 55% | active: 81.8% | inactive: 39% | active: 84% | active: 89.7% | inactive: 28% | inactive: 39% | active: 78% | inactive: 40% | inactive: 68% | active: 80% | inactive: 21% | inactive: 63% | active: 82.5% |
| O=[N+]([O-])c1ccc(-c2ccc([N+](=O)[O-])cc2[N+](=O)[O-])c([N+](=O)[O-])c1 | inactive: 40% | inactive: 65% | active: 70.8% | inactive: 46% | active: 73% | active: 75.8% | inactive: 18% | active: 96% | active: 87.2% | inactive: 21% | active: 96% | inactive: 41.4% | inactive: 44% | active: 97% | active: 84.2% | inactive: 37% | inactive: 59% | active: 78.1% |
| C[S+](C)C1CCCCCCC1Br.O=[N+]([O-])c1cc([N+](=O)[O-])c(S(=O)(=O)[O-])c([N+](=O)[O-])c1 | inactive: 4% | inactive: 21% | inactive: 48.5% | inactive: 17% | inactive: 54% | inactive: 23.8% | inactive: -7% | inactive: 35% | active: 73.5% | inactive: -9% | inactive: 21% | inactive: 49% | inactive: 12% | inactive: 43% | inactive: 43.1% | inactive: 24% | inactive: 49% | inactive: 43.5% |
| O=[N+]([O-])c1ccc2c(c1)/C(=N/N=C1/c3cc([N+](=O)[O-])ccc3-c3c1cc([N+](=O)[O-])cc3[N+](=O)[O-])c1cc([N+](=O)[O-])cc([N+](=O)[O-])c1-2 | inactive: -3% | active: 86% | active: 86% | inactive: 2% | active: 81% | active: 84.9% | inactive: -7% | active: 93% | inactive: 42% | inactive: -11% | active: 74% | inactive: 15.3% | inactive: 16% | active: 97% | active: 98.3% | inactive: 10% | active: 93% | active: 92.7% |
| CCCOCC(C#N)(c1ccccc1)N(C)C(N)=O.O=[N+]([O-])c1cc([N+](=O)[O-])c(O)c([N+](=O)[O-])c1 (centres undefined) | inactive: -2% | inactive: 3% | inactive: 11.4% | inactive: 1% | inactive: 1% | inactive: 7% | inactive: -3% | inactive: 6% | inactive: -6.05% | inactive: 4% | inactive: 8% | active: 71.3% | inactive: 2% | inactive: 1% | active: 94.2% | inactive: 2% | inactive: 4% | inactive: 8.6% |
